Experimental data reported in paper PMC4441257, “A large genomic island allows Neisseria meningitidis to utilize propionic acid, with implications for colonization of the human nasopharynx” (Molecular Microbiology, 2014).

System: CC(=O)O
Experiment: purified protein

Substance	Km
NMB0435 (AckA1) (Neisseria meningitidis MC58)	20.8 ± 4.6 mM
NMB1518 (AckA2) (Neisseria meningitidis MC58)	25.7 ± 4.3 mM
